Assay results: US9474749B2, “Morphine and morphine precursors” (priority 2004, dated 2016)

Test system: mu3 opiate receptor

`CN1CC[C@]23c4c5ccc(O)c4O[C@H]2[C@@H](O)C=C[C@H]3[C@H]1C5` [Morphine, morphine] was tested, and the “mu3 opiate receptor binding” value (daily 0.01 μM morphine) was “did not” and the “mu3 opiate receptor binding” value (daily 1 μM morphine) was “reduced mu3 opiate receptor binding”.

Like-named read-outs stand apart in the source and are kept apart here.
